Experiments:
[1] = beagle, in vivo
[2] = Han Wistar, in vivo, po

## Cn1cc(NC(=O)C2CCCCC2C(=O)c2ccc(-c3cc[nH]n3)cc2)c(C(F)(F)F)n1 (stereo not drawn) [Cmpd 16, Cn1cc(NC(=O)[C@@H]2CCCC[C@H]2C(=O)c2ccc(-c3cc[nH]n3)cc2)c(C(F)(F)F)n1]
[1]
  % of the total MS area, Dog Plasma (Female): 85%
[2]; female
  % of the total MS area, Rat Plasma (Female): 85%
[2]; male
  % of the total MS area, Rat Plasma (Male): 41%
